Only a part is listed here, and it is no random draw. Calls of active or inactive are those of the source. The calls were made as follows, unless noted: active = hit-call score of the fitted dose curve at least 0.9, where 1 is the maximum; inactive = score below 0.9.
What was measured:
[1] = read-out: Cytochrome P450 2C19 (Homo sapiens) (UniProt P33261); assay: LTEA_HepaRG_CYP2C19: Life Technologies and Expression Analysis (LTEA) Assay for CYP2C19 using HepaRG (AID 2283482); details: actives raise or lower the signal; mRNA level, 48 h
Method in brief: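 Differentiated HepaRG cells in serum-free induction medium exposed 48 h in duplicate, 8 concentrations from 100 uM by half-log steps in 0.5% DMSO. CYP2C19 mRNA measured by TaqMan qRT-PCR, normalized to ACTB, GAPDH, POLR2A. Bidirectional fit versus DMSO.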

The chains behind the UniProt entries cited, without tags or fusion partners.
UniProt P33261, whole entry: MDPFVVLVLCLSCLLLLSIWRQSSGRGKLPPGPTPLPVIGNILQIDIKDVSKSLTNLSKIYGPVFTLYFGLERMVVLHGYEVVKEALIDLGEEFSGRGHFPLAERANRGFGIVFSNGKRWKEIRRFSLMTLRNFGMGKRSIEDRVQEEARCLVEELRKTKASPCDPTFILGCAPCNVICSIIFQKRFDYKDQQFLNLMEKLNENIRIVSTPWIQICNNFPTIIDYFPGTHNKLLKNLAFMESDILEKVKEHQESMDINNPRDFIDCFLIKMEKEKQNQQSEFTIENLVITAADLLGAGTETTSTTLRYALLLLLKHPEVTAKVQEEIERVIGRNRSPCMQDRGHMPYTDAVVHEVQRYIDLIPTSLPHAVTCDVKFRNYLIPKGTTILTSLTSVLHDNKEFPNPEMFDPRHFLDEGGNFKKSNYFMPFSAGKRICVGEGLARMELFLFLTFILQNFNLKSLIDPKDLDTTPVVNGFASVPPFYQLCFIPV
UniProt P19838, whole entry: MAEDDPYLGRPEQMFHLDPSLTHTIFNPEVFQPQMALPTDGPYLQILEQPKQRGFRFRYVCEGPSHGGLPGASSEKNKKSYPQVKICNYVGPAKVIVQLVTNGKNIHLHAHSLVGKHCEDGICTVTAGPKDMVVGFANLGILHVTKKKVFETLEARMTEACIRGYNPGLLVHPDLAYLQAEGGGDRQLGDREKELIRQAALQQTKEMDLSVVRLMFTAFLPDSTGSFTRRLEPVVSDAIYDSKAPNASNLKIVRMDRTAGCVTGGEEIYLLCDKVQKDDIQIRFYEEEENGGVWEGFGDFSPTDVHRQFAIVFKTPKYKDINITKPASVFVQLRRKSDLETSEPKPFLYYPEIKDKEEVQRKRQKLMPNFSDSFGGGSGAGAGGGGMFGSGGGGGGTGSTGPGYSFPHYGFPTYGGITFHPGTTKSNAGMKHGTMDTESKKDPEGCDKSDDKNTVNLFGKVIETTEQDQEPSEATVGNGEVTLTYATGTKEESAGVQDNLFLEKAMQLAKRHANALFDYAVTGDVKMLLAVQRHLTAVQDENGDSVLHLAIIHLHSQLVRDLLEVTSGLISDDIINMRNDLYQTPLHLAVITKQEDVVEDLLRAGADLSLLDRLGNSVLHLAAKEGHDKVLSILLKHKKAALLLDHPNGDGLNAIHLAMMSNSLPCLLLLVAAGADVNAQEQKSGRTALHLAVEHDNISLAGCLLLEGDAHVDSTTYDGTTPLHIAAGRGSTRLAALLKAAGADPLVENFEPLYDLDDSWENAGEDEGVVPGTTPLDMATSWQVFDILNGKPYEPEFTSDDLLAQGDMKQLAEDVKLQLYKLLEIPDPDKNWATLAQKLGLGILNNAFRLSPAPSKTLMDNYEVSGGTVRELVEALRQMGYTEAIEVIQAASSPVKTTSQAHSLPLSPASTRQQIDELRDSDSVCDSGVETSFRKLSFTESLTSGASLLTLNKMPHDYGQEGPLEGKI
UniProt Q16236, whole entry: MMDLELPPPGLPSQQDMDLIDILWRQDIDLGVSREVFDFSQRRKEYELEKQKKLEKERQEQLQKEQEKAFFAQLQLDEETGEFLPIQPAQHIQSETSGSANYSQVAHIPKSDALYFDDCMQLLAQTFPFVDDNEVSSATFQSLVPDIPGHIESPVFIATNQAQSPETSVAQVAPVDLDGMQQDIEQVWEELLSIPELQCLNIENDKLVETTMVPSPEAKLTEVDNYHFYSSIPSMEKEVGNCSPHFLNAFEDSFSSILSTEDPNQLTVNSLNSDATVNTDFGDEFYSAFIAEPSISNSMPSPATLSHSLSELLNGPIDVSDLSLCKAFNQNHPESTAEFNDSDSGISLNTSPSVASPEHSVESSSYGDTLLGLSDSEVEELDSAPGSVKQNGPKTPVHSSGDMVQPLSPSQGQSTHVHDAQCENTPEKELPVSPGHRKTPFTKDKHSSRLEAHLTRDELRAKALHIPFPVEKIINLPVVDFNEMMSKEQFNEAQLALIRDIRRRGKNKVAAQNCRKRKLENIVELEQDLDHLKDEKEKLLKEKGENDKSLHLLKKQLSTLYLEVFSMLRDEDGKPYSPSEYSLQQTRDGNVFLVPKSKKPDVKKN

CYP2E1 (gene 1571) = assay: LTEA_HepaRG_CYP2E1: Life Technologies and Expression Analysis (LTEA) Assay for CYP2E1 using HepaRG (AID 2283485); details: actives raise or lower the signal; mRNA level, 48 h
Method in brief: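 CYP2E1 transcript was measured by TaqMan qRT-PCR in human HepaRG cultures after 48 h chemical exposure (top 100 uM, half-log steps, 0.5% DMSO vehicle). Housekeeping-gene normalization; gain or loss fitted relative to DMSO baseline.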

[2] = read-out: growth arrest and DNA damage 45 (GADD45G), GADD45G (gene 10912); assay: LTEA_HepaRG_GADD45G: Life Technologies and Expression Analysis (LTEA) Assay for growth arrest and DNA damage 45 (GADD45G) using HepaRG (AID 2283499); details: actives raise or lower the signal; mRNA level, 48 h
Method in brief: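 Differentiated human HepaRG cells, 48 h post-plating, exposed 48 h in serum-free induction medium to 8 half-log concentrations (top 100 uM, 0.5% DMSO) in duplicate. GADD45G mRNA measured by Fluidigm TaqMan qRT-PCR, normalized to ACTB, GAPDH, POLR2A; bidirectional fit versus DMSO.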

[3] = read-out: Insulin-like growth factor-binding protein 1 (IGFBP1), IGFBP1 (gene 3484); assay: LTEA_HepaRG_IGFBP1: Life Technologies and Expression Analysis (LTEA) Assay for Insulin-like growth factor-binding protein 1 (IGFBP1) using HepaRG (AID 2283508); details: actives raise or lower the signal; mRNA level, 48 h
Method in brief: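 HepaRG cells, plated 48 h then switched to serum-free induction medium, exposed in duplicate for 48 h to 8-point half-log series from 100 uM in 0.5% DMSO. mRNA measured by qRT-PCR, normalized to ACTB/GAPDH/POLR2A; bidirectional fit versus DMSO.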

[4] = read-out: Interleukin 6 (IL6), IL6 (gene 3569); assay: LTEA_HepaRG_IL6: Life Technologies and Expression Analysis (LTEA) Assay for Interleukin 6 (IL6) using HepaRG (AID 2283509); details: actives raise or lower the signal; mRNA level, 48 h
Method in brief: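 Changes in IL6 mRNA, up or down relative to 0.5% DMSO controls, were derived from concentration-response curves in human HepaRG cells treated for 48 h at up to 100 uM, with ACTB, GAPDH and POLR2A as normalizers.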

[5] = read-out: Interleukin 6 Receptor (IL6R), IL6R (gene 3570); assay: LTEA_HepaRG_IL6R: Life Technologies and Expression Analysis (LTEA) Assay for Interleukin 6 Receptor (IL6R) using HepaRG (AID 2283510); details: actives raise or lower the signal; mRNA level, 48 h;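 also: TaqMan qRT-PCR signal normalized to ACTB GAPDH and POLR2A housekeeping genes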
Method in brief: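 HepaRG, 48 h exposure, 8-pt half-log series, top 100 uM, 0.5% DMSO vehicle, duplicates. Read-out: TaqMan qRT-PCR of IL6R transcript, housekeeping-gene normalized. Gain or loss fitted relative to DMSO baseline.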

[6] = read-out: matrix metalloproteinase-10 (MMP10), MMP10 (gene 4319); assay: LTEA_HepaRG_MMP10: Life Technologies and Expression Analysis (LTEA) Assay for matrix metalloproteinase-10 (MMP10) using HepaRG (AID 2283517); details: actives raise or lower the signal; mRNA level, 48 h
Method in brief: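 In differentiated HepaRG cultures kept in 0.5% DMSO, test chemicals act for 48 h over an eight-point range with a top dose of 100 uM. Expression is then quantified by TaqMan RT-PCR against ACTB, GAPDH and POLR2A.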

[7] = read-out: Nuclear factor NF-kappa-B p105 subunit (Homo sapiens) (UniProt P19838); assay: LTEA_HepaRG_NFKB1: Life Technologies and Expression Analysis (LTEA) Assay for Nuclear Factor Kappa B Subunit 1 (NFKB1) using HepaRG (AID 2283521); details: actives raise or lower the signal; mRNA level, 48 h
Method in brief: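 Differentiated human HepaRG cells in serum-free induction medium with 0.5% DMSO were exposed for 48 h to eight half-log concentrations, top 100 uM, in duplicate. NFKB1 mRNA measured by Fluidigm TaqMan qRT-PCR, normalised to ACTB, GAPDH and POLR2A; bidirectional fit versus DMSO.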

[8] = read-out: Protein phosphatase 2A (PPP2R4), PTPA (gene 5524); assay: LTEA_HepaRG_PPP2R4: Life Technologies and Expression Analysis (LTEA) Assay for Protein phosphatase 2A (PPP2R4) using HepaRG (AID 2283522); details: actives raise or lower the signal; mRNA level, 48 h
Method in brief: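 HepaRG, 48 h exposure, 8-pt half-log series from 100 uM, 0.5% DMSO vehicle, duplicates. Readout: PPP2R4 mRNA, Fluidigm qRT-PCR, housekeeping-normalized. Bidirectional curve fit vs DMSO baseline.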

[9] = read-out: Phosphatase and tensin (PTEN), PTEN (gene 5728); assay: LTEA_HepaRG_PTEN: Life Technologies and Expression Analysis (LTEA) Assay for Phosphatase and tensin (PTEN) using HepaRG (AID 2283523); details: actives raise or lower the signal; mRNA level, 48 h
Method in brief: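 Expression of PTEN is quantified in the human liver line HepaRG following two days of dosing (top concentration 100 uM, half-log dilutions, 0.5% DMSO). Values derive from bidirectional curve fitting relative to DMSO controls.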

[10] = read-out: NAD(P)H dehydrogenase [quinone] 1 (NQO1), NQO1 (gene 1728); assay: LTEA_HepaRG_NQO1: Life Technologies and Expression Analysis (LTEA) Assay for NAD(P)H dehydrogenase [quinone] 1 (NQO1) using HepaRG (AID 2283526); details: actives raise or lower the signal; mRNA level, 48 h
Method in brief: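 qRT-PCR read-out (Fluidigm TaqMan), normalized to three housekeeping genes, after 48 h chemical exposure of HepaRG cells. Concentrations: eight points, top 100 uM, half-log steps, 0.5% DMSO vehicle. Gain or loss of signal fitted relative to DMSO.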

[11] = read-out: Nuclear factor erythroid 2-related factor 2 (Homo sapiens) (UniProt Q16236); assay: LTEA_HepaRG_NFE2L2: Life Technologies and Expression Analysis (LTEA) Assay for Nuclear factor erythroid 2-related factor 2 (NFE2L2) Transcription Factor using HepaRG (AID 2283527); details: actives raise or lower the signal; mRNA level, 48 h
Method in brief: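 Human liver HepaRG line treated in duplicate for 48 h with an eight-point series topping at 100 uM. Gene expression of NFE2L2 by qRT-PCR, bidirectionally fitted against the vehicle control.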

[12] = read-out: UDP glucuronosyltransferase (UGT1A6), UGT1A6 (gene 54578); assay: LTEA_HepaRG_UGT1A6: Life Technologies and Expression Analysis (LTEA) Assay for UDP glucuronosyltransferase (UGT1A6) using HepaRG (AID 2283539); details: actives raise or lower the signal; mRNA level, 48 h
Method in brief: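 Differentiated HepaRG cells, ~100,000/well, were exposed for 48 h in serum-free induction medium with 0.5% DMSO to 8-point half-log series topping at 100 uM, in duplicate. mRNA measured by Fluidigm TaqMan qRT-PCR, normalized to ACTB, GAPDH and POLR2A.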

[13] = read-out: X-box binding protein 1 (XBP1), XBP1 (gene 7494); assay: LTEA_HepaRG_XBP1: Life Technologies and Expression Analysis (LTEA) Assay for X-box binding protein 1 (XBP1) using HepaRG (AID 2283540); details: actives raise or lower the signal; mRNA level, 48 h
Method in brief: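 Differentiated human HepaRG cells in serum-free induction medium exposed 48 h in duplicate to eight half-log concentrations up to 100 uM in 0.5% DMSO. XBP1 mRNA measured by Fluidigm TaqMan qRT-PCR, normalized to ACTB, GAPDH, POLR2A; bidirectional fitting against DMSO.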

[14] = LTEA_HepaRG_LDH_cytotoxicity: Cytotoxicity Assessment in the Life Technologies and Expression Analysis (LTEA) Assay (AID 2283563; active = hit-call score of the fitted dose curve at least 0.9, where 1 is the maximum;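 also: LDH activity released into spent culture medium as a marker of cell death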)
Method in brief: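 Differentiated HepaRG cells in serum-free induction medium, exposed 48 h in duplicate to 8 half-log concentrations up to 100 uM in 0.5% DMSO. Cytotoxicity from LDH measured in spent medium, fit relative to DMSO.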

Measured: AC50

Cc1cc([N+](=O)[O-])cc([N+](=O)[O-])c1O
active: [1] 12.9 µM | CYP2E1 (gene 1571) 6.09 µM | [2] 32.2 µM | [3] 61.7 µM | [4] 17.6 µM | [5] 12.2 µM | [6] 17.9 µM | [7] 11.9 µM | [8] 12.4 µM | [9] 12.6 µM | [10] 6.51 µM | [11] 11.9 µM | [12] 12.8 µM | [13] 12.4 µM | [14] 29.6 µM

— PubChem BioAssay (EPA / NIEHS)
